According to patent US6953793B2 (priority 2000, dated 2005):
pIC50: −log10 of the molar value. Some compounds may have been tested in ways that are not shown here.

Chains of the proteins cited; added tags and fusions are not shown. Residues count along the entry.
UniProt P25774, 115-331 limits assumed: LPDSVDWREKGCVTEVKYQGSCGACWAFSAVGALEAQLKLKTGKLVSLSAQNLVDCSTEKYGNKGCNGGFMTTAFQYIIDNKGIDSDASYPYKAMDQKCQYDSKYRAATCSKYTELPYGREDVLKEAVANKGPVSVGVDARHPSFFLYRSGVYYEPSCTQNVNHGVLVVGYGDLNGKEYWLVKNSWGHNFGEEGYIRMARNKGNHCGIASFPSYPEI

Target: Recombinant human cathepsin S (CatS) (Homo sapiens, UniProt P25774)
Experiment: Cathepsin S Inhibition Assay
Assay type: biochemical
Details: Table 3; 100 mM sodium acetate pH 5.0, 1 mM DTT, 100 mM NaCl; 20 μM substrate

For CNC(=O)N(c1cccc(Cl)c1)C1CCN(CC(O)Cn2nc(-c3ccc(Cl)c(C)c3)c3c2CCN(C(C)=O)C3)CC1 (stereo not shown), the pIC50 was 6.06.
